The term Ki denotes the equilibrium dissociation constant of an inhibitor or competing ligand from its target.

Protein sequences, listed by entry. Tags and fused reporters are not part of them. Residues count along the entry.
UniProt P51449, 269-508 limits assumed: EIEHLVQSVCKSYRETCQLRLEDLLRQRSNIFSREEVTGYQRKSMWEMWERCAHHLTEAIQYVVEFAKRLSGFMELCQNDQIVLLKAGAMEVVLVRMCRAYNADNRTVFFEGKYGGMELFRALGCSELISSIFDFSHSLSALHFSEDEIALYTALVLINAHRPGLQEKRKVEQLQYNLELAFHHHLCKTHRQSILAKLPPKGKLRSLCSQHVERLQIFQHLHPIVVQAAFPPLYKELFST

The source of these data is patent US9481674B1, “Dihydropyrrolopyridine inhibitors of ROR-gamma” (Vitae Pharmaceuticals, Inc., priority 2016, dated 2016).

This assay concerns the target T1, recombinant RORγ Ligand Binding Domain (LBD) protein (Homo sapiens, UniProt P51449).
T1 construct: 6×His; GST
Kind of assay: Radio-Ligand RORγ Binding Assay (Assay 1). Particulars: cell-free competition with 25-hydroxy[26,27-3H]-cholesterol; read-out: RORγ Binding Ki Range* (nM) (Assay 1). As to the method: Radio-Ligand RORγ Binding Assay (Assay 1)
The plate was shaken at 700 rpm for 20 min and incubated for 10 min at rt, after which 40 μL of poly-Lys YSi SPA beads (PerkinElmer, Cat. # RPNQ0010) were added to achieve 50 μg of the beads per well. The plate was incubated on an orbital shaker for 20 min and then for 10 min without agitation at rt. SPA signal for tritium beta radiation was registered on PerkinElmer Microbeta plate reader.

Molecules are shown by their SMILES.

`CC[C@H]1c2ncc(C(=O)N[C@@H](CO)c3ccc(S(=O)(=O)CC)cn3)cc2CN1C[C@H]1CC[C@H](C(F)(F)F)OC1` (single isomer, unassigned) [Compound 3]: the inhibitory constant (Ki) is < 100 nM.
